The target of test [1] is actin filaments (purified actin, polymerised in vitro).
The target is the same in test [2]. In words: co-sedimentation; high-speed (100,000xg) co-sedimentation; polymerised actin (500 nM in the titration) incubated with Mc modules in AP buffer for 1 h at room temperature; pellet and supernatant by SDS-PAGE and Coomassie; titration quantified by immunoblot (antibody 23C), fit to a single-site isotherm.
In test [3] the target is actin filaments in growth cones of cultured hippocampal neurons (mouse (endogenous in cultured hippocampal neurons)). The test is described as follows: FRET or BRET; acceptor photobleaching FRET in growth cones of fixed 2 DIV hippocampal neurons; donor GFP or GFP-tagged construct, acceptor TRITC-phalloidin on actin filaments. Background: BRET reads energy transfer from a luciferase to a nearby fluorophore.

As usually defined, the Kd is the concentration at which binding is half-saturated.

“MAP6 Mc modules (Mc domain), purified (from UniProt Q63560 221-455) (domain or fragment)” displayed a loss of pyrene-actin fluorescence after buffer dilution, filaments with Mc modules (actin alone −25%) (% of the initial fluorescence) in test [1] of -11. This molecule also displayed a Kd in test [2] of 670 nM.

B1: GFP-Mc (GFP fused to rat MAP6 Mc modules) (domain or fragment)
chain: VPAAGKASGADQRDTRRKAGPAWMVTRTEGHEEKPLPPAQSQTQEGGPAAGKASGADQRDTRRKAGPAWMVTRTEGHEEKPLPPAQSQTQEGGPAAGKASGADQRDTRRKAGPAWMVTRTEGHEETPLPPAQSQTQEGGPAAGKASGADQRDTRRKAGPAWMVTRTEGHEETPLPPAQSQTQEGGPAAGKASGADERDTRRKAGPAWMVRRSEGHEQTTAAHAQGTGPEGGKGRA
In test [3], B1 had an FRET efficiency of 49.6%.

(Values after publication PMC6141585.)
